In PubChem BioAssay AID736 (The Scripps Research Institute Molecular Screening Center, 2007):
Only a part is listed here, and it is no random draw. Calls of active or inactive are those of the source. Cut-off read from the data, not from the text of the source: active = inhibition above about 45%; inactive = the rest.

By UniProt entry, the sequences of proteins in these tests, tags left out. Where a name states a change or a piece, a line headed by the entry shows the natural chain unless it says otherwise.
UniProt O95136: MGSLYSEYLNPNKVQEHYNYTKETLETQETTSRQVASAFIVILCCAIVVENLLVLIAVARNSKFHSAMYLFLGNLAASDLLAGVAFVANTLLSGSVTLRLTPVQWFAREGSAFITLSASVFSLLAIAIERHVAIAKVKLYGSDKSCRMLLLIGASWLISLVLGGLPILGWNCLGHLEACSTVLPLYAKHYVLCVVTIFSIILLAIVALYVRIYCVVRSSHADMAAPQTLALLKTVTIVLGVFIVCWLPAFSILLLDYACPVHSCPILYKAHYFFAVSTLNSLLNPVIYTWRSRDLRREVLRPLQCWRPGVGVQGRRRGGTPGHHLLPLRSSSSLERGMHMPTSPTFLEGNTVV

Biological target: Sphingosine 1-phosphate receptor 2 (Homo sapiens) (UniProt O95136)
Experiment: blockers of S1P2 receptor signalling – cell-based, primary screen (AID 736);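 note: CRE beta-lactamase reporter cells expressing human S1P2 stimulated with S1P; 0% = agonist at EC80 alone and 100% = agonist plus reference antagonist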
Details: cell-based S1P2 antagonist assay, at 5 µM, hits give high values

Compound | inhibition
CC1(CBr)Cn2c(nc3ccccc3c2=O)S1 (stereo not drawn) | inactive: 4.7%
O=P1(Nc2ccccn2)COc2ccccc2OC1 | inactive: -8.31%
Clc1n[nH]nc1-c1nn[nH][15n]1 | inactive: -7.64%
O=P1(Nc2ncccn2)COc2ccccc2OC1 | inactive: 15.8%
Cc1ccc(OCC(=O)OC2CN3CCC2CC3)cc1 (stereo not drawn) | inactive: -18.7%
O=P1(Nc2ccc(Br)cn2)COc2ccccc2OC1 | inactive: 13.3%
Cc1nn(-c2ccccc2)c2c1P(=O)(N1CCOCC1)N(C)C(c1ccccc1)=N2 (stereo not drawn) | inactive: 14.4%
CCOP1(=S)c2c(C)nn(CCC#N)c2N=C(c2ccc(F)cc2)N1C (stereo not drawn) | inactive: 5.98%
O=[N+]([O-])c1ccc2c(c1)nnn2O | inactive: -10.7%
CCOP1(=S)c2c(C)nn(CCC#N)c2N=C(c2ccccc2F)N1C (stereo not drawn) | inactive: 8.32%
Cc1cccc(OCC(=O)OC2CN3CCC2CC3)c1 (stereo not drawn) | inactive: -20.5%
O=C(OC1CN2CCC1CC2)C12CC3CC(CC(C3)C1)C2 (stereo not drawn) | inactive: -15.2%
ClCCSc1nnc(-c2cccnc2)o1 | inactive: 4.03%
CCN(CC)C(=S)SC(NC=O)C(Cl)(Cl)Cl (stereo not drawn) | inactive: 4.52%
CCC(C)N(CC(C)C)C(=S)SC(NC(C)=O)C(Cl)(Cl)Cl (stereo not drawn) | inactive: 13%
COP1(=S)c2c(C)nn(CCC#N)c2N=C(c2ccc(F)cc2)N1C (stereo not drawn) | inactive: 5.13%
O=C(COc1ccccc1)OC1CN2CCC1CC2 (stereo not drawn) | inactive: 8.42%

Compound | inhibition
CC1CCN(C(=O)Oc2c(Cl)cc(Cl)c3cccnc23)CC1 | inactive: 3.78%
CCc1nc2c(n1)c1c(non1O)c1c2no[n+]1[O-] | inactive: 18.6%
O=[N+]([O-])c1cccc2n[nH]nc12 | inactive: -17.9%
CC(=O)N1C2C3N(C(C)=O)C1C1N(C(C)=O)C(C(N1C(C)=O)N3C(C)=O)N2C(C)=O | inactive: -1.3%
CCOP(=O)(Nc1ccccc1)OCC | inactive: -9.17%
Oc1ccccc1CNc1ccccn1 | inactive: 7.59%
Cc1c2non([O-])c-2c(C)[n+](=O)[n+]1[O-] | inactive: -14.8%
CC(C)CC(=O)NC(Sc1ccc(Cl)cc1)C(Cl)(Cl)Cl (stereo not drawn) | inactive: 11.3%
CN1CCCC(OC(=O)C(c2ccccc2)c2ccccc2)C1 (stereo not drawn) | inactive: 0.9%
O=P1(Nc2nc3ccc(Cl)cc3s2)COc2ccccc2O1 (stereo not drawn) | inactive: 2.22%
CCC(=O)N1C2C3N(C(=O)CC)C1C1N(C(=O)CC)C(C(N1C(=O)CC)N3C(=O)CC)N2C(=O)CC | inactive: -12.7%
COC(=O)c1cc2c(s1)N=C(c1ccccc1)N(C)P2(=O)N1CCOCC1 (stereo not drawn) | inactive: -15.3%
CCOC(=O)NC(Sc1ccccc1)C(Cl)(Cl)Cl (stereo not drawn) | inactive: -10.7%
O=C(OC1CN2CCC1CC2)c1cccc(Cl)c1 (stereo not drawn) | inactive: 7.05%
O=P(Nc1nccs1)(c1ccccc1)c1ccccc1 | inactive: -12.8%
c1nnnn1CCn1cnnn1 | inactive: 0.31%
